In article PMC6423038, “Deferiprone: Pan-selective Histone Lysine Demethylase Inhibition Activity and Structure Activity Relationship Study” (Scientific Reports, 2019):

Legend:
KDM1A (LSD1) = KDM1A (LSD1) (Homo sapiens, UniProt O60341); assay: KDM cell-free assay (AlphaScreen, BPS Bioscience); settings: at 0.5 and 10 μM
[1] = test system: H3K4me3 and H3K27me3 levels in MCF-7 cells; settings: Western blot, 72 h

Cc1c(O)c(=O)ccn1C [DFP, Deferiprone]
effect on the activity of KDM1A (KDM1A (LSD1)): no effect
H3K4me3 and H3K27me3 levels [1]: dose-dependent upregulation
